Measurements as given in patent US20200308279A1 (published 2020).

Molecular target: MART-1 (MELAN-A) peptide on HLA-A*02:01 (human)
Assay: activation reporter or marker

binding result: no recognition
B1: Radium-1 TCR (TCR, V domains shown)
Valpha: GIQVEQSPPDLILQEGANSTLRCNFSDSVNNLQWFHQNPWGQLINLFYIPSGTKQNGRLSATTVATERYSLLYISSSQTTDSGVYFCAVNAGNMLTFGGGTRLMVKP
Vbeta: DVKVTQSSRYLVKRTGEKVFLECVQDMDHENMFWYRQDPGLGLRLIYFSYDVKMKEKGDIPEGYSVSREKKERFSLILESASTNQTSMYLCASSSGVTGELFFGEGSRLTVL
